In ChEMBL document CHEMBL1156941, “Discovery of small molecule isozyme non-specific inhibitors of mammalian acetyl-CoA carboxylase 1 and 2” (Bioorg Med Chem Lett, 2010) one finds IC50 data, which are given here for 2 compounds.

Structures are written as SMILES.

The assay addresses Acetyl-CoA carboxylase 1 (Rattus norvegicus, UniProt P11497). Nature of the assay: Inhibition of rat liver ACC1 after 7 mins by liquid scintillation counter.

`Cc1ccc2cc(CC3CCN(C(=O)c4c5ccccc5cc5ccccc45)CC3)ccc2n1`: the 50% inhibitory concentration (IC50) (in general, the midpoint of a concentration-inhibition curve) was 325 nM.

On to `O=C(c1c2ccccc2cc2ccccc12)N1CCC(N2CCC[C@@H](C(=O)N3CCOCC3)C2)CC1`, for which the IC50 stood at 92 nM. Compared with the last compound, the IC50 is about 3.5-fold lower.
